Data published in patent publication US20240209028A1, “CNP COMPOUNDS” (priority 2022, published 2024).

Biological target: T1, human natriuretic peptide receptor 2 (hNPR2) (Homo sapiens, UniProt P20594)
T1 construct: expressed in transfected cells; host or cells: HEK293 (ATCC CRL-1573), clone 35, co-transfected with pGloSensor-42F
T1 sequence (P20594 23-1047): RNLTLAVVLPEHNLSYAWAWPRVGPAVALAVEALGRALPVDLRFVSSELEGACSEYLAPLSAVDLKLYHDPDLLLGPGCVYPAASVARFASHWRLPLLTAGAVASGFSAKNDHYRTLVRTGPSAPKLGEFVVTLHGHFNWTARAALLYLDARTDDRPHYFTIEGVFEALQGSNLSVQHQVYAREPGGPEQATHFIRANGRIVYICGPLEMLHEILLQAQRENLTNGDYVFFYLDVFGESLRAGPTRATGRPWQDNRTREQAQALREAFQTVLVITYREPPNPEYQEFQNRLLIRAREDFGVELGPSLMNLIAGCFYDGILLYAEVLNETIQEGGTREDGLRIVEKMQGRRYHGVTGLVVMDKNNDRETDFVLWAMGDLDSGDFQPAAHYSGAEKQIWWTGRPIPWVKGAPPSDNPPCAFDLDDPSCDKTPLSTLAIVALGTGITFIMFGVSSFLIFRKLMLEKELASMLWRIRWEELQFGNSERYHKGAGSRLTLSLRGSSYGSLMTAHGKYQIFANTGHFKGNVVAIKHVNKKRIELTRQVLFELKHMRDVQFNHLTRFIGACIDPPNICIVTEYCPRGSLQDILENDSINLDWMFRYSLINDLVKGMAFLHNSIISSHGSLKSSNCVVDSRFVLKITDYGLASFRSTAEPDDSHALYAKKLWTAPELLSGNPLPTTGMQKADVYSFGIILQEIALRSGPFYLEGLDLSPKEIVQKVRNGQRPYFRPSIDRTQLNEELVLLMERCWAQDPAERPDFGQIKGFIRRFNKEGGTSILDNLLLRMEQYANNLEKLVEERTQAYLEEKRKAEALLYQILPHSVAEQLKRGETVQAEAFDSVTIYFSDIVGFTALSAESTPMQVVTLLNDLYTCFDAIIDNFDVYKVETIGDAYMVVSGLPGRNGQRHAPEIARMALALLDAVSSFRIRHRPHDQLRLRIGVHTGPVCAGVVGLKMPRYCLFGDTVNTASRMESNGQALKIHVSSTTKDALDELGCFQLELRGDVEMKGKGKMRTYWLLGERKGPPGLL
Experiment: In vitro hNPR2 activity assay (cGMP GloSensor reporter, HEK293)
Format: cell-based
Settings: potency relative to CNP22 (0065)
Protocol: To evaluate the in vitro activity of CNP22 (0065; Chem. 1) and CNP compounds of the invention, they were tested for their ability to induce production of cyclic guanosine monophosphate (cGMP) in reporter cells expressing the human natriuretic peptide receptor 2 (hNPR2).
Cell culture: To produce the reporter cell line, HEK293 (ATCC® CRL-1573™) cells were stably transfected with the pGloSensor-42F reporter plasmid (GloSensor cGMP reporter—luciferase, Promega) and an expression plasmid encoding the hNPR2 receptor. A single cell clone was isolated for the reporter cell line. When reporter cells are exposed to an hNPR2 activating compound, hNPR2 cause production of cGMP. […] Active GloSensor luciferase is able to convert luciferin to oxyluciferin, a process that produces bioluminescence. Upon cell lysis and supply of luciferase substrate, luciferase activity can be quantified by detection of luminescence. Therefore, addition of an hNPR2 activating compound and subsequent addition of detection reagent to reporter cells causes generation of luminescence in a dose dependent manner. […] This measure, also referred to as in vitro potency, is reported for all compounds tested. In all the in vitro activity experiments, CNP22 was used as a positive in-plate control for hNPR2 activation. To reduce inter-assay variation, we also report the potency of each compound relative to the potency of the CNP22 control on each plate.
Procedure: HEK293-hNPR2/GloSensor clone 35 cells were continuously cultured in selection medium (DMEM containing 10% FCS, 1% P/S, 200 μg/mL G418 and 100 μg/mL hygromycin). To perform the assay, cells were detached with TrypLE Express (Gibco #12604013), put through a 70 μm cell strainer, counted and seeded in 30 μL/well assay medium (DMEM without phenol red and with 1% P/S) at 10,000 cells/well in white 384-well plates (Perkin Elmer #6007680) overnight. The following day, test compounds were serial diluted in dilution medium (DMEM without phenol red containing 1% OVA (Sigma #A5505 lot 04M7001V), 0.01% Tween20 (Roche #33766700) and 1% P/S) and 10 μL/well of diluted test compounds were subsequently added to the cells. For each compound, ten different concentrations in the range 0.25 μM-10 μM were tested. After 30 min of incubation at 37° C. and 5% CO2, 40 μL/well Bright-Glo detection reagent (Promega #E2650) was added. […] To determine the in vitro potency or EC50 of each test compound, a four parameter logistic regression was done on the raw data for each test compound using the Python package SciPy optimize. The average EC50 values are listed as “hNPR2 0% HSA. [EC50 (nM)]” in Table 2. A relative potency was calculated by the following expression: EC50 (CNP22 in-plate control)/EC50 (test compound)*100, shown as “hNPR2 0% HSA. [EC50% rel CNP]” in Table 2. A minimum of two replicates was measured for each test compound.

| Structure (SMILES) | hNPR2 0% HSA. [EC50% rel CNP] [%] |
| --- | --- |
| CCCC[C@@H]1NC(=O)[C@H](CO)NC(=O)CNC(=O)[C@H]([C@@H](C)CC)NC(=O)[C@H](CCCNC(=N)N)NC(=O)[C@H](CC(=O)O)NC(=O)[C@H](CC(C)C)NC(=O)[C@H](CCCCN)NC(=O)[C@H](CC(C)C)NC(=O)CNC(=O)[C@H](Cc2ccccc2)NC(=O)[C@@H](NC(=O)CNC(=O)[C@H](CCCCN)NC(=O)[C@H](CO)NC(=O)[C@H](CC(C)C)NC(=O)CNC(=O)[C@H](CCCCN)NC(=O)[C@H](CCCCN)NC(=O)[C@H](CC(N)=O)NC(=O)[C@H](C)NC(=O)CNC(=O)[C@H](CCCCN)NC(=O)[C@H](Cc2ccc(O)cc2)NC(=O)CC[C@H](NC(=O)CC[C@H](NC(=O)CC[C@H](NC(=O)CC[C@H](NC(=O)CC[C@H](NC(=O)CC[C@H](NC(=O)CCCCCCCCCCCCCCCCC(=O)O)C(=O)O)C(=O)O)C(=O)O)C(=O)O)C(=O)O)C(=O)O)CSSC[C@@H](C(=O)O)NC(=O)CNC(=O)[C@H](CC(C)C)NC(=O)CNC(=O)[C@H](CO)NC1=O [compound 0262] | 1.8 |
| CCCC[C@@H]1NC(=O)[C@H](CO)NC(=O)CNC(=O)[C@H]([C@@H](C)CC)NC(=O)[C@H](CCCNC(=N)N)NC(=O)[C@H](CC(=O)O)NC(=O)[C@H](CC(C)C)NC(=O)[C@H](CCCCN)NC(=O)[C@H](CC(C)C)NC(=O)CNC(=O)[C@H](Cc2ccccc2)NC(=O)[C@@H](NC(=O)CNC(=O)[C@H](CO)NC(=O)[C@H](CO)NC(=O)[C@H](CC(C)C)NC(=O)CNC(=O)[C@H](CO)NC(=O)[C@H](CCCCN)NC(=O)[C@H](CC(N)=O)NC(=O)[C@H](C)NC(=O)CNC(=O)[C@H](CCCCN)NC(=O)[C@H](Cc2ccc(O)cc2)NC(=O)[C@H](CCCCN)NC(=O)[C@H](CCCNC(=N)N)NC(=O)[C@H](C)NC(=O)[C@H](CC(N)=O)NC(=O)CC[C@H](NC(=O)CC[C@H](NC(=O)CC[C@H](NC(=O)CC[C@H](NC(=O)CC[C@H](NC(=O)CC[C@H](NC(=O)CCCCCCCCCCCCCCCCC(=O)O)C(=O)O)C(=O)O)C(=O)O)C(=O)O)C(=O)O)C(=O)O)CSSC[C@@H](C(=O)O)NC(=O)CNC(=O)[C@H](CC(C)C)NC(=O)CNC(=O)[C@H](CO)NC1=O [compound 0296] | 3.6 |
| CCCC[C@@H]1NC(=O)[C@H](CO)NC(=O)CNC(=O)[C@H]([C@@H](C)CC)NC(=O)[C@H](CCCNC(=N)N)NC(=O)[C@H](CC(=O)O)NC(=O)[C@H](CC(C)C)NC(=O)[C@H](CCCCN)NC(=O)[C@H](CC(C)C)NC(=O)CNC(=O)[C@H](Cc2ccccc2)NC(=O)[C@@H](NC(=O)CNC(=O)[C@H](CCCCN)NC(=O)[C@H](CO)NC(=O)[C@H](CC(C)C)NC(=O)CNC(=O)[C@H](CCCCN)NC(=O)[C@H](CCCCN)NC(=O)[C@H](CC(N)=O)NC(=O)[C@H](C)NC(=O)CNC(=O)CC[C@H](NC(=O)CC[C@H](NC(=O)CC[C@H](NC(=O)CC[C@H](NC(=O)CC[C@H](NC(=O)CCCCCCCCCCCCCCCCC(=O)O)C(=O)O)C(=O)O)C(=O)O)C(=O)O)C(=O)O)CSSC[C@@H](C(=O)O)NC(=O)CNC(=O)[C@H](CC(C)C)NC(=O)CNC(=O)[C@H](CO)NC1=O [compound 0313] | 0.7 |
| CCCC[C@@H]1NC(=O)[C@H](CO)NC(=O)CNC(=O)[C@H]([C@@H](C)CC)NC(=O)[C@H](CCCNC(=N)N)NC(=O)[C@H](CC(=O)O)NC(=O)[C@H](CC(C)C)NC(=O)[C@H](CCCCN)NC(=O)[C@H](CC(C)C)NC(=O)CNC(=O)[C@H](Cc2ccccc2)NC(=O)[C@@H](NC(=O)CNC(=O)[C@H](CCCCN)NC(=O)[C@H](CO)NC(=O)[C@H](CC(C)C)NC(=O)CNC(=O)[C@H](CCCCN)NC(=O)[C@H](CCCCN)NC(=O)[C@H](CCC(N)=O)NC(=O)[C@H](C)NC(=O)CNC(=O)CC[C@H](NC(=O)CC[C@H](NC(=O)CC[C@H](NC(=O)CC[C@H](NC(=O)CC[C@H](NC(=O)CCCCCCCCCCCCCCCCC(=O)O)C(=O)O)C(=O)O)C(=O)O)C(=O)O)C(=O)O)CSSC[C@@H](C(=O)O)NC(=O)CNC(=O)[C@H](CC(C)C)NC(=O)CNC(=O)[C@H](CO)NC1=O [compound 0334] | 2.0 |
